From PubChem BioAssay AID1345561 (Gulick Lab, Department of Structural Biology, University at …, 2018) come the findings set out here.

Only a part is listed here, and it is no random draw. The source made the active and inactive calls. The rule behind the calls is not given here.

For the test, the system named is Aerobactin synthetase IucA (Klebsiella pneumoniae). The test can be described thus: IucA aerobactin synthetase inhibitors, biochemical, Tocris library, absorbance (AID 1345561).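 Note: 100% = enzyme without compound and 0% = no enzyme.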 Conditions: purified IucA enzyme assay, absorbance (OD) read-out; active compounds read low;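 tested at 8 µM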.
As for `CN(C(=O)Cc1ccc(Cl)c(Cl)c1)[C@H]1CCCC[C@@H]1N1CCCC1`, the remaining activity is inactive: 101%. `CN(C(=O)Cc1ccc(Cl)c(Cl)c1)[C@@H]1CCCC[C@H]1N1CCCC1`: the remaining activity was inactive: 97.1%.

The term remaining activity denotes the signal under treatment as a percentage of the control signal.
